Results reported in patent US8426588B2, “Phenylalanine derivatives” (Ajinomoto Co, Inc., priority 2000, dated 2013).

Protein sequences, listed by entry. Tags and fused reporters are not part of them. Residues count along the entry.
UniProt P13612, 34-1032 limits assumed: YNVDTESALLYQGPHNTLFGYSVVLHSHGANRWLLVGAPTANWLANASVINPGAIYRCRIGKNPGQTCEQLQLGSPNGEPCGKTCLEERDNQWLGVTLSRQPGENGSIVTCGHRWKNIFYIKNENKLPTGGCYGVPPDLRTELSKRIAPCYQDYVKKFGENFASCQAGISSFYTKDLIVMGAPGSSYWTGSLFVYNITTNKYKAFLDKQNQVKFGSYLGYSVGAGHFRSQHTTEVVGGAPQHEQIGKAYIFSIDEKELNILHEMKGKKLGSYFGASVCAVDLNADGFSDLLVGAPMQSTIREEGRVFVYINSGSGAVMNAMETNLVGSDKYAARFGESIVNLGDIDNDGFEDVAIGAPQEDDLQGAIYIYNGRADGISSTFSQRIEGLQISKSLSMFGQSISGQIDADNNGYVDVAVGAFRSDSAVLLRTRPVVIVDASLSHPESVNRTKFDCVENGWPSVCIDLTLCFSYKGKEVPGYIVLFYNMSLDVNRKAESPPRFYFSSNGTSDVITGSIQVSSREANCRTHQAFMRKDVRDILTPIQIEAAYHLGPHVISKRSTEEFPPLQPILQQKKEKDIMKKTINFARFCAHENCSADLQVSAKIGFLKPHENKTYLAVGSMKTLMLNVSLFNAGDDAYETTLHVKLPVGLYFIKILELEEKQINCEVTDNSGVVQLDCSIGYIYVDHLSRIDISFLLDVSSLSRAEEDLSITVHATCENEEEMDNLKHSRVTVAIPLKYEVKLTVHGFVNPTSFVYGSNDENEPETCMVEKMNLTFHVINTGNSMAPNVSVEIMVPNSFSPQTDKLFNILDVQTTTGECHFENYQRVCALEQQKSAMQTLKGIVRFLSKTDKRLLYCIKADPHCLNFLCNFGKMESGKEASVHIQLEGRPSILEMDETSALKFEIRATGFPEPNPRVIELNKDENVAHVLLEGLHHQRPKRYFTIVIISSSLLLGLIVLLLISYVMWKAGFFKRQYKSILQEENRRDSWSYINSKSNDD
UniProt P26010, 20-798 limits assumed: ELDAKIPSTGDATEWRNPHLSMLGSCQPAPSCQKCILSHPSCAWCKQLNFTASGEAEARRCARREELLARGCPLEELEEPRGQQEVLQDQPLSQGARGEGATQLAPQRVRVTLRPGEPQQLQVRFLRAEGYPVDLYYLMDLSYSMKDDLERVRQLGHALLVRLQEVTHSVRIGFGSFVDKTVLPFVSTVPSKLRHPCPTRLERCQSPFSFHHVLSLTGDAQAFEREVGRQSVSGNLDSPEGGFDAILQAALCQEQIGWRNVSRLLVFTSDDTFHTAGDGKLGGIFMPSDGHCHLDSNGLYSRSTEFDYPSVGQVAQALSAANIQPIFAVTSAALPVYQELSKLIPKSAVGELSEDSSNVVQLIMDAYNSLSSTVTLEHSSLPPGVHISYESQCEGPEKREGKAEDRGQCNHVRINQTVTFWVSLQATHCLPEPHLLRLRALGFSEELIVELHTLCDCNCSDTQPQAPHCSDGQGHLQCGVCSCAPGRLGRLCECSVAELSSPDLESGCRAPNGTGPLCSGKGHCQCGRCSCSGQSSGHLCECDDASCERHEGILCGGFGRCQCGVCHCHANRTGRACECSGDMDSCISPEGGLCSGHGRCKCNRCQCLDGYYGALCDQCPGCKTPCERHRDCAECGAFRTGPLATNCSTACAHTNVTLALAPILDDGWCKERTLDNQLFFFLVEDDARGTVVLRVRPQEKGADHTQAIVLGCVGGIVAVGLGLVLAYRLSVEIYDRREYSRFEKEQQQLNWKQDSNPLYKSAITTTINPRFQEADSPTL
UniProt P05556, 21-798 limits assumed: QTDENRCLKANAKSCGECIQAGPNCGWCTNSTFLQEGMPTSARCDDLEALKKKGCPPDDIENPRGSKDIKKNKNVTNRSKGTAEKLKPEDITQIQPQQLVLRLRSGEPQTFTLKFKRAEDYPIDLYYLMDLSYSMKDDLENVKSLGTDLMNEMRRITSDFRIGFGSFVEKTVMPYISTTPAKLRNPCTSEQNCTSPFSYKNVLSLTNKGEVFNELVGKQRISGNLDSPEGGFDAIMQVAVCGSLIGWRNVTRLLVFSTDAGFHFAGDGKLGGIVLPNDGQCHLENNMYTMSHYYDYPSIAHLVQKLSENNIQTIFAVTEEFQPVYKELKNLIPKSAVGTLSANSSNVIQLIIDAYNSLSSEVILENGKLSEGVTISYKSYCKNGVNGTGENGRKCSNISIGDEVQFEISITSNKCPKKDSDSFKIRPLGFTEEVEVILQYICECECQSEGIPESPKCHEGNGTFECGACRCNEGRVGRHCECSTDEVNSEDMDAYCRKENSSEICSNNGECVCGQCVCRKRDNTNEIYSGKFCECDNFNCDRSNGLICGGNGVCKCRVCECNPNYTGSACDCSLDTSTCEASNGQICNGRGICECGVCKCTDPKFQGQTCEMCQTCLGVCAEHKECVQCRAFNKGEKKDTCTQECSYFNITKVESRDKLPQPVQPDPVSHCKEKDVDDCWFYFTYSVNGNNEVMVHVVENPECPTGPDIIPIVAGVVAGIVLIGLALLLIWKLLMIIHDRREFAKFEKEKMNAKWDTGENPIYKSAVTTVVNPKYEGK

Experiments:
integrin α4β7 = integrin α4β7 (Homo sapiens, UniProt P13612+P26010); assay: VCAM antagonistic activity (VCAM-1/α4β7 binding assay), RPMI-8866 cells binding to VCAM-1; format: cell-based; settings: read-out: VCAM antagonistic activity (IC50) α4β7; RPMI-8866 human B lymphoma cells binding to recombinant human VCAM-1; binding buffer with 4 mM MnCl2
integrin α4β1 = integrin α4β1 (Homo sapiens, UniProt P05556+P13612); assay: VCAM antagonist activity (VCAM-1/α4β1 binding assay), Jurkat cells binding to VCAM-1; format: cell-based; settings: read-out: VCAM antagonistic activity (IC50) α4β1; Jurkat human T cells binding to recombinant human VCAM-1

| IC50 (integrin α4β7) [nM] | IC50 (integrin α4β1) [nM] | Compound |
| --- | --- | --- |
| 20 |  | O=C(N[C@@H](Cc1ccc(-n2c(=O)c3ccccc3n(-c3ccccc3)c2=O)cc1)C(=O)O)c1c(Cl)cccc1Cl |
| 26 | 1260 | O=C(N[C@@H](Cc1ccc(-n2c(=S)[nH]c3ccccc3c2=O)cc1)C(=O)O)c1c(Cl)cccc1Cl |
|  | 60 | Cn1c(=O)n(-c2ccc(C[C@H](NC(=O)c3c(Cl)cccc3Cl)C(=O)O)cc2)c(=O)c2nccnc21 |
